Nrf2 block = blocks Nrf2 signaling | A549 ARE-Fluc reporter, luciferase luminescence, 18-24 h | Potency, µM (highest dose often 46 µM), inactives show at the top dose activity change, negative = inhibition, actives largely listed as inhibitors | actives 2.1% (n = 360,000); note: potency is the fitted concentration of half-maximal effect; % is set by controls: 0 for no effect and ±100 for the full control effect; nearly all actives have a fitted effect of over 60% in size
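A549 ARE_Fluc cells, 5000/well, 5% FBS OPTI-MEM; compounds in dose-response, 18-24 h at 37 °C/5% CO2; CellTiter-Fluor viability read (Ex 405/Em 525), then BugLite luciferase luminescence = Nrf2 activity.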
Nrf2 ARE act = activators of Nrf2 (ARE) signaling | Potency, µM (series often up to 46.1 µM), without a hit: at the highest dose activation, most hits filed as activators | AID 624171 | actives 0.31% (n = 410,000) | AREc32 ARE-luciferase reporter (MCF7-derived line), luminescence, 24 h; note: potency is the fitted concentration of half-maximal effect; % of control where 0% means no effect; nearly all actives have a fitted effect of over 65% in size
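Steps: seed AREc32_Fluc cells (1000/well, 5% FBS OPTI-MEM); incubate overnight at 37 deg C; add 23 nL compound; incubate 24 hr; add Steady-Glo; hold 30 min RT; read luminescence.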
A549 tox = kills or reduces viability of A549 cells in Nrf2 counter-screen. A549 ARE-Fluc cells, CellTiter-Fluor viability, 18-24 h. Potency, µM (titrated, usually from 46 µM), for the others: at the highest dose activity change, negative = cytotoxicity, hits mostly inhibitors. actives 0.16% (n = 390,000); note: potency is the fitted concentration of half-maximal effect; % is set by controls: 0 for no effect and ±100 for the full control effect
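A549 ARE_Fluc cells in 5% FBS OPTI-MEM were exposed to compounds in concentration-response for 18-24 h at 37 deg C. Viability was read by CellTiter-Fluor fluorescence (Ex 405/Em 525) after 30 min, before the luciferase read.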
TCR activator = activators of T cell receptors | Potency, µM (highest dose often 9.22 µM), for inactives: at the top dose activation of IL-2 secretion, usual class: activators | primary human leukocytes, anti-CD3, IL-2 HTRF, 48 h | 330,000 tested, under 10 active | AID 504894; note: % of control where 0% means no effect
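Primary human leukocytes were stimulated with a-CD3 beads plus compounds for 48 hr without co-stimulation; secreted IL-2 was quantified by HTRF using a-IL-2-K (europium cryptate) and a-IL-2-d2, excited at 320nm with acceptor emission read at 665nm.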
ClpP mod = qHTS Assay for Activators of ClpP; ATP-dependent Clp protease proteolytic subunit (Bacillus subtilis (strain 168)), P80244; Potency, µM (doses to about 57.5 µM), for inactives: at the highest dose activity change, negative = active; AID 651965, 2013; actives 1.9% (n = 340,000); purified B. subtilis ClpP, FRET peptide cleavage, 20 min; active = well fitted falling curve with a large enough effect; inconclusive = small, poorly fitted or top-dose-only effect; inactive = no such curve, though single readings can be large or run the other way; note: potency is the fitted concentration of half-maximal effect; the source files actives as falling curves though it sought activators and does not explain the sign; nearly all actives have a fitted effect of over 65% in size
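FRET quenching reversal measured ClpP activation: 10 microg/mL B. subtilis ClpP at pH 8 with the FRET-FV decapeptide, read at 430 nm after 320 nm excitation. The 20-min minus 0-min signal was scaled between DMSO/no-enzyme wells and ADEP (5.8 microM final).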
miR-21 reporter = miR-21 reporter, rising signal. HeLa miR-21 FLuc reporter, luciferase, 48 h. Potency, µM (titrated, usually from 38.3 µM), without a hit: at the top dose reporter change, positive = more light. 340,000 tested, under 10 active. AID 2288; active = well fitted rising curve with a large enough effect; inconclusive = small, poorly fitted or top-dose-only effect; inactive = no such curve, though single readings can be large or run the other way;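 also: % of control where 0% means no effect; miR-21 action dims this reporter so a rising signal means less miR-21 action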
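HeLa miR-21-FLuc reporter line, endogenous miR-21; 2000 cells/well in DMEM/10% FBS; compound titration up to ~40uM final, 48 h, 37 degree Celsius; luciferase detection reagent, 15 min lysis, CCD luminescence.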
ClpP inh valid = validation of B. subtilis ClpP protease hits (inhibitors). actives 40% (n = 470). purified B. subtilis ClpP, FRET-FV substrate cleavage, 20 min. Potency, µM (highest dose often 57.5 µM), without a hit: at the top dose activity change, negative = inhibition, usual class: inhibitors. shares compounds with ClpP mod. AID 743245; note: potency is the fitted concentration of half-maximal effect; % is set by controls: 0 for no effect and ±100 for the full control effect; nearly all actives have a fitted effect of over 70% in size
Numbers without * were called inactive; ? = inconclusive; · = no result; [ ] = dose if it differs, or a comment. Only some compounds are listed: those with a hit (about 3.7% of all), similar ones and a draw of the others. Unless noted, calls come from the whole dose curve; as a rule, active = well fitted curve in the direction sought with a large enough effect; inconclusive = small, poorly fitted or top-dose-only effect, or another doubt; inactive = no such curve, though single readings can be large; an effect the other way counts as inactive or inconclusive.

Molecule,Nrf2 block,Nrf2 ARE act,A549 tox,TCR activator,ClpP mod,miR-21 reporter,ClpP inh valid
COc1cc2c(cc1NC(=O)C(C)N1CCN(S(=O)(=O)c3ccc(C)c(C)c3)CC1)oc1ccccc12 (centres undefined),?,8%,20%,-10%,3.2µM*,-13%,?
COc1cc2c(cc1NC(=O)C(C)N1CCN(S(=O)(=O)c3ccccc3[N+](=O)[O-])CC1)oc1ccccc12 (centres undefined),2%,8%,29%,0%,-6%,-11%,·
O=c1oc2cc(OCc3ccc(F)cc3F)ccc2cc1-c1ccccn1,6%,0%,3%,-2%,3.2µM*,-10%,9.7µM*
NC(=O)COc1ccc2cc(-c3ccc(F)cc3)c(=O)oc2c1,?,-1%,-1%,0%,·,-40%,·
COc1cc(OC)c(CNC2CCCCCC2)cc1Br,-2%,0%,0%,3%,2.8µM*,8%,0%
COc1cc(OC)c(OC)cc1CNC1CCCCCC1,·,0%,-5%,-1%,-1%,4%,·
Cc1cc(C)c2c(CC(=O)Nc3c(C(=O)Nc4ccc(Cl)cc4)oc4ccccc34)coc2c1,?,4%,-7%,·,7.9µM*,-20%,-23%
Cc1cccc(NC(=O)c2oc3ccccc3c2NC(=O)Cc2coc3cc(C)cc(C)c23)c1,-7%,-1%,4%,·,-2%,-6%,·
c1cncc(C2Nc3ccccc3-c3nc4ccccc4n32)c1 (centres undefined),-1%,3%,-9%,-3%,3.2µM*,-9%,27µM*
Cc1ccsc1C1Nc2ccccc2-c2nc3ccccc3n21 (centres undefined),11%,9%,1%,0%[46.1 µM],74%,-22%,·
CCCCNC(=O)C1c2ccccc2OCC(=O)N1C1CC1 (centres undefined),·,0%,·,·,-1%,·,·
COc1cc2nc(NC(=O)c3ccc(S(=O)(=O)N4CCCC4)cc3)sc2cc1OC,·,-1%,7%,·,7%,0%,·

Printed as active in ClpP inh valid, among the entries above:
Molecule	TCR activator	ClpP mod	miR-21 reporter	ClpP inh valid
O=c1oc2cc(OCc3ccc(F)cc3F)ccc2cc1-c1ccccn1	-2%	3.2µM*	-10%	9.7µM*
c1cncc(C2Nc3ccccc3-c3nc4ccccc4n32)c1 (centres undefined)	-3%	3.2µM*	-9%	27µM*

New compounds follow:
Molecule,Nrf2 block,Nrf2 ARE act,A549 tox,TCR activator,ClpP mod,miR-21 reporter,ClpP inh valid
Cc1nc(-c2ccc(Cl)cc2)sc1C1(C)CC(c2c(Cl)cccc2Cl)=NO1 (centres undefined),-5%,3%,3%,-3%,10µM*,-1%,27µM*
CC1CCN(S(=O)(=O)c2ccc3c(c2)CCN3C(=O)Nc2cccc(Br)c2)CC1,-4%,-1%,1%,·,59%,4%,?
c1nc2n(n1)C1=C(CCCC1)C1(CCCCC1)N2,1%,0%,3%,·,10µM*,-10%,-1%
Cc1cccc(N2CCn3c2nc2c3c(=O)n(C/C=C/c3ccccc3)c(=O)n2C)c1,11%,1%,7%,·,-17%,0%,·
O=c1[nH]c(=O)n(C2OC(CO)C(O)C2O)c2c1CCCC2 (centres undefined),·,1%,·,·,0%,·,·
CC(OC(=O)c1nn(C(C)C)c(=O)c2ccccc12)C(=O)Nc1ncc(Cl)cc1Cl (centres undefined),6%,0%,4%,-5%[46.1 µM],42%,-3%,-5%
Nc1c(C(=O)NCCN2CCOCC2)c2nc3ccccc3nc2n1-c1cccc(F)c1,-26%,1%,4%,0%,10µM*,1%,22µM*
COCCCNC(=O)c1c(N)n(-c2cccc(S(N)(=O)=O)c2)c2nc3ccccc3nc12,-15%,1%,?,-3%,8.9µM*,2%,?
Cc1cccc(C)c1NC(=O)CNC(=O)CNC(=O)c1ccc2ccccc2c1,·,3%,·,·,-13%,·,·
CC(/C=N/n1c(COc2ccccc2)n[nH]c1=S)=C\c1ccco1,3%,?,-5%,1%,·,-6%,·
COCCNc1nc2cc(-c3ccccc3OC)sc2c(=O)n1C,·,14%,·,·,5%,·,·

Single entries from the list:
COCCCNC(=O)c1c(N)n(-c2cccc(S(N)(=O)=O)c2)c2nc3ccccc3nc12 | ClpP mod = 8.9µM*
Cc1nc(-c2ccc(Cl)cc2)sc1C1(C)CC(c2c(Cl)cccc2Cl)=NO1 (centres undefined) | Nrf2 block = -5%
Cc1cccc(N2CCn3c2nc2c3c(=O)n(C/C=C/c3ccccc3)c(=O)n2C)c1 | ClpP mod = -17%

Source: PubChem BioAssay (National Center for Advancing Translational Sciences (NCATS))
